According to publication PMC5846726, “Characterization of the Mel1c melatoninergic receptor in platypus (Ornithorhynchus anatinus)” (PLoS ONE, 2018):

Target: T1, hMT2 (Homo sapiens, UniProt P49286)
T1 sequence (P49286 1-362): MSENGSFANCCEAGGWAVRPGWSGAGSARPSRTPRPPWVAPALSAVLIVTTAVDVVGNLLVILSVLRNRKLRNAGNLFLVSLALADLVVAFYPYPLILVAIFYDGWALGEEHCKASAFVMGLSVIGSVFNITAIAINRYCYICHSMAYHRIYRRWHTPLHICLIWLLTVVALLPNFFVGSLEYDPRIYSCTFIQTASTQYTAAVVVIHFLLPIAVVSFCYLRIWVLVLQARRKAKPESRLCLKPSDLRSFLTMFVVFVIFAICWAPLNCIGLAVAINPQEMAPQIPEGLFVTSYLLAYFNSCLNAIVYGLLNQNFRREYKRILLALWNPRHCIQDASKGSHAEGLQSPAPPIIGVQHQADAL
Assay: 2-[125I]-iodomelatonin competition binding, human MT2
Procedure: This approach has been described very often by our laboratory and others. […] The results were expressed as Ki, taking into account the concentration of radioligand used in each experiment. […] The reaction was stopped by rapid filtration through GF/B Unifilters, followed by three successive washes with ice-cold buffer. Data were analyzed by using the program PRISM (GraphPad Software Inc., San Diego, CA). For saturation assays, the density of binding sites (Bmax) and the dissociation constant of the radioligand (KD) were calculated according to the Scatchard method. […] A similar protocol was used when the binding was performed on whole cells, as described by Legros et al.. As per Plos One policy, all the raw data–listings from radioactivity counter are attached as raw files (Supplementary Tables A to M in S1 Data).

(S)-N-(2-(1,6,7,8-tetrahydro-2H-indeno-(5,4)furan-8-yl)ethyl)propionamide [Ramelteon ®]
hMT2: 10.3
